Source: article PMC4075989 (Biochemistry, 2014)

Experiment: Serum stability test
Type: in vitro ADME, human

- state of peptide after 2 h in serum (25% human serum, 37 °C, 5 µM, reversed-phase HPLC): completely digested
- half-life (human, 25% human serum (supernatant after centrifugation)): < 20 min
SMILES: CC[C@H](C)[C@H](NC(=O)[C@H](CCCCN)NC(=O)[C@@H](NC(=O)[C@H](CCC(N)=O)NC(=O)[C@@H](N)CCCNC(=N)N)[C@@H](C)CC)C(=O)N[C@@H](Cc1c[nH]c2ccccc12)C(=O)N[C@@H](Cc1ccccc1)C(=O)N[C@@H](CCC(N)=O)C(=O)N[C@@H](CC(N)=O)C(=O)N[C@@H](CCCNC(=N)N)C(=O)N[C@@H](CCCNC(=N)N)C(=O)N[C@@H](CCSC)C(=O)N[C@@H](CCCCN)C(=O)N[C@@H](Cc1c[nH]c2ccccc12)C(=O)N[C@@H](CCCCN)C(=O)N[C@@H](CCCCN)C(=O)O [Antp]
